Experimental data: patent EP4825857A1, “TRICYCLIC FUSED HETEROCYCLIC PDE3/4 DUAL INHIBITOR, AND PREPARATION AND USE THEREFOR” (dated 2026)

Sequences of proteins named here, by UniProt entry; tags and fusion partners are left off. A line that says so, or that is headed by a name, gives the form on record, which may keep a tag or linker. Residues count along the entry.
UniProt Q14432, whole entry: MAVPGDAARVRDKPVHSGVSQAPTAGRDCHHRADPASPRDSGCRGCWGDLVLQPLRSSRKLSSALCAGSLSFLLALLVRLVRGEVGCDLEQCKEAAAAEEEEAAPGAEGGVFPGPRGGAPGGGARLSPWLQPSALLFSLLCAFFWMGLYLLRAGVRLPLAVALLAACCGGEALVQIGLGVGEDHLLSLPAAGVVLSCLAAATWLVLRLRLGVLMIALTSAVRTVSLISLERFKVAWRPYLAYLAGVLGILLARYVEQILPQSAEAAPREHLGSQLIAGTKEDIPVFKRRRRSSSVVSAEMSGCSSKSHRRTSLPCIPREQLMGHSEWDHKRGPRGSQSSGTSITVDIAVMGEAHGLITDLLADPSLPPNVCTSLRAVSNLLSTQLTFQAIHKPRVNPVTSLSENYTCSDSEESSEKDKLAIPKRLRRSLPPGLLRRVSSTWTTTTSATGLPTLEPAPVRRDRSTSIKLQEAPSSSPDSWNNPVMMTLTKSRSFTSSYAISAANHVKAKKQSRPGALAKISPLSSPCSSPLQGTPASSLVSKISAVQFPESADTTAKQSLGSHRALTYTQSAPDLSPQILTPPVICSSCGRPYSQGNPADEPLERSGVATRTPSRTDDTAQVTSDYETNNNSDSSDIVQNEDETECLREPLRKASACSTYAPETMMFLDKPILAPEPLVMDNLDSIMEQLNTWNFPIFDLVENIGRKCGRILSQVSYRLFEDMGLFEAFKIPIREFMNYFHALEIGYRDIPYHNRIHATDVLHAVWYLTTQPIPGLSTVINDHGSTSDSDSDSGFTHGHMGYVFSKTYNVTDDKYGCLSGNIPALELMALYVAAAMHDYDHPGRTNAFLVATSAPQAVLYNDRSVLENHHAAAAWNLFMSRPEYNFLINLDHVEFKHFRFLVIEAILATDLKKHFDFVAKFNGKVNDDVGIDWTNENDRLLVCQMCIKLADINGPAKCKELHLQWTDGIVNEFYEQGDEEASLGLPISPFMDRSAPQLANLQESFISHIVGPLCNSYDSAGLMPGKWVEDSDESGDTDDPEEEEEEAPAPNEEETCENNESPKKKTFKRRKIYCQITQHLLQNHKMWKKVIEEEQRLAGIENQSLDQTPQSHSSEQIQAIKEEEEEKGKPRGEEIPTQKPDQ
UniProt Q13370, whole entry: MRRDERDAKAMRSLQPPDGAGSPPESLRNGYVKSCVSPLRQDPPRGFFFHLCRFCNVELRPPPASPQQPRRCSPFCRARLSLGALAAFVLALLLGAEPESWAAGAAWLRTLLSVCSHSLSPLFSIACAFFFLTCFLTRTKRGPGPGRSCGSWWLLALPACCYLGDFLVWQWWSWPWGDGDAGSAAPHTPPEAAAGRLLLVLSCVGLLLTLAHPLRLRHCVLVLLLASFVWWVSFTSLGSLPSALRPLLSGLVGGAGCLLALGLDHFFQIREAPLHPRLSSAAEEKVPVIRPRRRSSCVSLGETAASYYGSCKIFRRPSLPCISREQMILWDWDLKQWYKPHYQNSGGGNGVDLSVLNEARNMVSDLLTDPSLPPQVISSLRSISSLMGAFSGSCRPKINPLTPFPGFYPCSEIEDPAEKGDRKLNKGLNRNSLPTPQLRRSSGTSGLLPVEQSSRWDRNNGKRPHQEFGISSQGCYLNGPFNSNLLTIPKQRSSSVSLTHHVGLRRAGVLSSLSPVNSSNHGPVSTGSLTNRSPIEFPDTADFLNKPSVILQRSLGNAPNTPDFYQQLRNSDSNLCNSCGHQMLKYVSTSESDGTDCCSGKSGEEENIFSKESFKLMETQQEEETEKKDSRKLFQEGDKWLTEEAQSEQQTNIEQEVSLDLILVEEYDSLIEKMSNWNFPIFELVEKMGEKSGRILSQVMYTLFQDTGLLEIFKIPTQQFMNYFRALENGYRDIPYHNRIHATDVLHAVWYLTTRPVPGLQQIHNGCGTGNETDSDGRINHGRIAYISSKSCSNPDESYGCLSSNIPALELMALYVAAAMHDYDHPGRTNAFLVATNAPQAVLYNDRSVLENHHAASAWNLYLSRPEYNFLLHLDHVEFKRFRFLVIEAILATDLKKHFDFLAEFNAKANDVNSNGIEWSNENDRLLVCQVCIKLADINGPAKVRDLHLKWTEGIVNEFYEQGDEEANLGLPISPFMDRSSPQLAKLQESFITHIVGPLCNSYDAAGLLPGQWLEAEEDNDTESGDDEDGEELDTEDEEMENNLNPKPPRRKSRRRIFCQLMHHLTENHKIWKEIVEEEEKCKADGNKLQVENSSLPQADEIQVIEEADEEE
UniProt Q07343, 1-564 with tags or gaps: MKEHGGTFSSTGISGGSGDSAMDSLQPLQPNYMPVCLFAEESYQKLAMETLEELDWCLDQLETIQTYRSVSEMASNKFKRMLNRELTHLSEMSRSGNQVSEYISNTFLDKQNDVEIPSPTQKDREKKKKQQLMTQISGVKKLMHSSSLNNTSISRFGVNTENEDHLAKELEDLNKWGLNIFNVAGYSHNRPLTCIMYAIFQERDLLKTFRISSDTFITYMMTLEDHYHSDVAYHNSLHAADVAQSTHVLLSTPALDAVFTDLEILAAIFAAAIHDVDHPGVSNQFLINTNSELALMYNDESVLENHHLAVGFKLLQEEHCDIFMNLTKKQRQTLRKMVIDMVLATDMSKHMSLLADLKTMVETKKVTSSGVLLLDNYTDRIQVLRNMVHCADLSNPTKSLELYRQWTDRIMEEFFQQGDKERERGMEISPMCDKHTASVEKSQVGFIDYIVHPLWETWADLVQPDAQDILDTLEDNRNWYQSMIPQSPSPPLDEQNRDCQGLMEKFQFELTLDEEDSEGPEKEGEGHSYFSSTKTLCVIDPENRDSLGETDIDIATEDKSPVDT
UniProt Q08499, 303-809 limits assumed: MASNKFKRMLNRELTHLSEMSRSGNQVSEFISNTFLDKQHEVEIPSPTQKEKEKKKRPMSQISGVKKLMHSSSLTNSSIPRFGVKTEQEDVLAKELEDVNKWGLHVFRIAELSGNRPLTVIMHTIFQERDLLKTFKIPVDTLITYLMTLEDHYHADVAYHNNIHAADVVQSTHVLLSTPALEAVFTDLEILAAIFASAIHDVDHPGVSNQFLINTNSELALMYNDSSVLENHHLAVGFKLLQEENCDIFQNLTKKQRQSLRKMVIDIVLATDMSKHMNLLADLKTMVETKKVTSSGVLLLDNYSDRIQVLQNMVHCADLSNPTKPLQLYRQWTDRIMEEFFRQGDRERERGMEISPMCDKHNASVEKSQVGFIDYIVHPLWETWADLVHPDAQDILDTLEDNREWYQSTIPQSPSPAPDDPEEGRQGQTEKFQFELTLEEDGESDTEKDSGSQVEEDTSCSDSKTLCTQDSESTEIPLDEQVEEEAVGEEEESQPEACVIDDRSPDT

Key:
PDE3A = PDE3A (Homo sapiens, UniProt Q14432); assay: PDE enzyme activity inhibition assay (fluorescence polarization, IMAP)
Description: (§1) The inhibitory activity of the compounds of the Examples against PDE enzymes was evaluated using a fluorescence polarization (FP) assay. RPL-554, the compound disclosed in Example 1 of CN100415743C, was used as the positive control. [drawing 182]
(§2) In a reaction buffer, i.e., 1× IMAP Reaction Buffer containing 0.1% BSA and supplemented with 1 mM DTT, a PDE enzyme solution and a substrate solution (FAM-cyclic AMP/cyclic AMP) were prepared. The positive control was prepared at an initial concentration of 1/10 µM for the PDE assay and was diluted 3-fold, with a 10+0 dose design. Using the acoustic liquid handling technology (Echo 655), 0.05 µL of each compound in 100% DMSO was transferred into a 384-well plate (Corning 4514), followed by centrifugation at 1,000 rpm for 1 min. Then, 2.5 µL of the PDE enzyme solution was transferred into the 384-well reaction plate, followed by centrifugation at 1,000 rpm for 1 min and incubation at 25 °C for 10 min. Subsequently, 2.5 µL of the substrate solution was transferred into the 384-well reaction plate, followed by centrifugation at 1,000 rpm for 1 min and incubation at 25 °C for 60 min. Then, 15 µL of a binding reagent mixture was transferred into the 384-well reaction plate, followed by centrifugation at 1,000 rpm for 1 min and incubation at 25 °C for 60 min. Finally, the FP signal was measured using a BMG PHERAstar FSX plate reader. IC50 values and nonlinear regression curve fitting were obtained using GraphPad Prism software.
(§3) The inhibitory activities of the compounds against PDE enzymes were evaluated using the FP method, with RPL-554 and compound D7 as control compounds. The detailed test method was the same as that described in PDE Enzyme Activity Inhibition Assay I. The structural formulae of RPL-554 and compound D7 are shown below. [drawing 183]

PDE3B = PDE3B (Homo sapiens, UniProt Q13370); assay: as above; conditions: read-out: PDE3B; FP assay, Table 4
Description: as §1, §2, §3

PDE4B2 = PDE4B2 (Homo sapiens, UniProt Q07343); assay: as above
Description: as §1, §2, §3

PDE4D2 = PDE4D2 (Homo sapiens, UniProt Q08499); assay: as above; conditions: read-out: PDE4D2; FP assay, Table 4
Description: as §1, §2, §3

[1] = In vitro plasma protein binding (equilibrium dialysis); conditions: human plasma; for Protein Binding Ratio (%) Average / Protein Binding Ratio (%) Sample 1 / Protein Binding Ratio (%) Sample 2: 5 h, 37.0 °C
Description: Test Objective: To investigate the in vitro human plasma protein binding of RPL-554, Compound 1-2, Compound 10-2, Compound 67, and Compound 69.
Incubation conditions: test compound incubation time, 5 h; test compound final concentration, 0.5 µM; species, human; temperature, 37.0 °C.
Stock solutions of the test compounds and Warfarin were prepared, diluted, and added to the plasma matrix so that the final concentration of each test compound in the system was 10 µM, and the final concentration of Warfarin was 1 µM. Immediately after preparation, 50 µL of the sample was transferred into termination solution, and 50 µL of a blank buffer was added to obtain the T0 sample for recovery calculation.
For the test groups and system control group, 100 µL of plasma solution containing Warfarin or a test compound, or 100 µL of a buffer solution containing a test compound, was added to the donor chamber of an equilibrium dialysis device.
The donor and receiver chambers were incubated at 37 °C and 100 rpm for 5 h.
For the stability test group, each test compound was incubated with plasma or a blank buffer for 0 or 5 h.
At the incubation, 50 µL sample was collected from the donor chamber for each group, and 50 µL of a blank buffer was added. In addition, 50 µL sample was collected from the receiver chamber, and 50 µL of blank plasma was added, so that the final volume of each sample was 100 µL.
Methanol containing an internal standard was added to all samples to precipitate proteins. After centrifugation, the supernatant was collected, and the concentrations of the test compounds and Warfarin in the samples were determined by LC-MS/MS using relative quantification.

[2] = test system: isolated tracheal smooth muscle from guinea pig; assay: Relaxation of isolated trachea precontracted with acetylcholine chloride; conditions: for relief of ACh-induced contraction (in words): compared with the positive control; for EC50: read-out: EC50 (µmol/L), tracheal relaxation, ACh 1 × 10^-5 mol/L precontraction, guinea pig
Description: Preparation of K-H Solution: The modified K-H solution (Krebs-Henseleit solution) contained the following components (mmol/L): NaCl 133, KCl 4.7, MgSO4 0.61, NaH2PO4 1.35, CaCl2 2.52, NaHCO3 16.3, and glucose 7.8. Except for NaHCO3, CaCl2, and glucose, which were freshly added before the experiment, the other components were prepared as concentrated stock solutions and stored at room temperature. On the day of the experiment, appropriate volumes of the stock solutions were taken and diluted with ultrapure water to required concentrations. The prepared K-H solution was adjusted to pH 7.2-7.4 with hydrochloric acid, and fully pre-saturated with mixed gas of 95% O2 and 5% CO2 before use.
Experimental Animals: Male guinea pigs each weighing 300-350 g, as well as the feed, were provided by Beijing Vital River Laboratory Animal Technology Co., Ltd. All animal experiments were performed in accordance with the National Institutes of Health Guide for the Care and Use of Laboratory Animals. The animals were housed at the New Drug Evaluation Center of Hebei Yiling Pharmaceutical Research Institute Co., Ltd. under a 12 h light/dark cycle, at 20-26 °C and 40-70% relative humidity, with five animals per cage. Corncob bedding for the experimental animals was provided by Jiangsu Xietong Pharmaceutical Bioengineering Co., Ltd. and used after autoclaving. The animals were fed an SPF-grade breeding diet and provided with bottled purified water ad libitum, and the water was changed once daily. After one week of adaption, the subsequent experimental procedures were performed.
During the experiment, the animals were weighed and their body weights were recorded. The animals were stunned by a single blow to the head with a wooden rod, after which the chest was rapidly opened. The intact trachea, extending from the thyroid cartilage to the tracheal bifurcation near the lung parenchyman, was excised and immediately immersed in the modified K-H solution aerated with mixed gas of 95% O2 and 5% CO2.
The connective tissue surrounding the trachea was removed. The trachea was cut transversely at intervals of two cartilage rings. Every four cartilage rings were ligated to form one tracheal chain segment. Two tungsten wire loops were passed in parallel through the lumen of each tracheal preparation, and the specimen was placed in a bath containing 10 mL of the modified K-H solution. One side of each tracheal preparation was fixed to the lower end of a stainless-steel support through a tungsten wire loop, and the other side was connected to a tension transducer through a tungsten wire loop and a silk thread. Tracheal tension signals were recorded by a data acquisition system through the tension transducer. The bath was maintained at 37°C and continuously supplied with oxygen. The initial load was adjusted to 2 g. The K-H solution was replaced every 15 min, and the specimen was equilibrated for 1 h, during which the solution was replaced four times. The experiment was initiated after the experimental conditions had stabilized. […] The tracheal relaxation function was expressed as the tracheal relaxation rate, which was calculated as the percentage of the relaxation amplitude induced by the compound based on the ACh-induced precontraction amplitude. The EC50 value of each compound was calculated.

[3] = read-out: PDE3A, FP assay, Table 4
[4] = read-out: PDE4B2, FP assay, Table 4

| SMILES | IC50 (PDE3A; [3]) | IC50 (PDE3B) | IC50 (PDE4B2; [4]) | IC50 (PDE4D2) | plasma protein binding ratio (in words) [1] | Protein Binding Ratio (%) Average [1] | Protein Binding Ratio (%) Sample 1 [1] | Protein Binding Ratio (%) Sample 2 [1] | relief of ACh-induced contraction (in words) [2] | EC50 [2] | IC50 (PDE3A; read-out: IC50, nM PDE3A, FP assay II, Table 5) | IC50 (PDE4B2; read-out: IC50, nM PDE4B2, FP assay II, Table 5) |
| --- | --- | --- | --- | --- | --- | --- | --- | --- | --- | --- | --- | --- |
| COc1cc2c(cc1OC)-c1cc(N(c3c(C)cc(C)cc3C)C(C)CNC(=O)c3ncc[nH]3)nc(=O)n1CC2 (single isomer, unassigned) [Compound 10-2] | 0.0332 nM | 0.0467 nM | 10.9 nM | 9.79 nM | high plasma protein binding ratio | 96.6% | 96.3% | 96.9% | effectively relieved ACh-induced contraction | 0.167 µmol/L | – | – |
| COc1cc2c(cc1OC)-c1cc(N(c3c(C)cc(C)cc3C)C(C)CNC(=O)c3[nH]nnc3C)nc(=O)n1CC2 (single isomer, unassigned) [Compound 12-1] | 0.0451 nM | 0.0695 nM | 1.24 nM | 1.68 nM | – | – | – | – | effectively relieved ACh-induced contraction | 1.44 µmol/L | – | – |
| COc1cc2c(cc1OC)-c1cc(N(c3c(C)cc(C)cc3C)C(C)CNC(=O)c3cccc(N)n3)nc(=O)n1CC2 (stereo not drawn) | – | – | – | – | high plasma protein binding ratio | 98.4% | 98.5% | 98.4% | – | – | – | – |
| COc1cc2c(cc1OC)-c1cc(N(c3c(C)cc(C)cc3C)C(C)CNC(N)=O)nc(=O)n1CC2 (single isomer, unassigned) [Compound 1-2] | 0.09 nM | 0.0544 nM | 23.8 nM | 15.3 nM | high plasma protein binding ratio | 92.3% | 93.9% | 90.6% | effectively relieved ACh-induced contraction | 0.626 µmol/L | – | – |
| COc1cc2c(cc1OC)-c1cc(N(c3c(C)cc(C)cc3C)C(C)CNC(=O)c3ccccn3)nc(=O)n1CC2 (stereo not drawn) | 0.0785 nM | 0.111 nM | 3 nM | 1.61 nM | – | – | – | – | effectively relieved ACh-induced contraction | 0.666 µmol/L | – | – |
| COc1cc2c(cc1OC)-c1cc(N(c3c(C)cc(C)cc3C)C(C)CNC(=O)c3cc(N)ccn3)nc(=O)n1CC2 (stereo not drawn) | – | – | – | – | high plasma protein binding ratio | 97.9% | 98.0% | 97.7% | – | – | – | – |
| COc1cc2c(cc1OC)-c1cc(=Nc3c(C)cc(C)cc3C)n(CCNC(N)=O)c(=O)n1CC2 | 0.579 nM | 0.775 nM | 107 nM | 74.4 nM | high plasma protein binding ratio | 92.4% | 91.8% | 92.9% | – | 6.21 µmol/L | 0.579 nM | 107 nM |

Like-named read-outs stand apart in the source and are kept apart here.
